Antibody variant affinities, Ab-14 light chain, assay 1

Data: MIT Lincoln Laboratory AlphaSeq set, Engelhart et al. 2022, doi:10.1038/s41597-022-01779-4, as distributed in FLAb.

Target peptide (SARS-CoV-2 spike, HR2 region): PDVDLGDISGINAS

The variants keep the heavy chain, the linker and the frameworks of Ab-14 (scFv order VH, a (GGGGS)3 linker, VL).
VH: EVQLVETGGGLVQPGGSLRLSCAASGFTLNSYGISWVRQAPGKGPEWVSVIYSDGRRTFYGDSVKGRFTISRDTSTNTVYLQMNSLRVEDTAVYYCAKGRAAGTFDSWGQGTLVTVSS
VL: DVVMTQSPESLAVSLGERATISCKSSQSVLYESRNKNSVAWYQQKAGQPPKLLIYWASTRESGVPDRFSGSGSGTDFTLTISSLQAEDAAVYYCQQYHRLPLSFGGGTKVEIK

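The parent was found by panning a naive human phage display library on the peptide. Library AAYL50 holds single substitutions and randomly drawn double and triple substitutions in the CDRs. Affinity was read by AlphaSeq, a pooled yeast mating assay with surface-displayed partners. The frequency of each diploid, read from paired DNA barcodes, reflects how well the two displayed proteins bind. Read counts were normalised to the haploid input and turned into Kd by a linear fit to BCL2-family pairs of known affinity, for each replicate. The assay was run in three technical replicates.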

Changes read parent residue, position, new residue, counted from the first residue of the VL shown.
Scale: log10 of Kd in nM, estimated from mating counts; low values are strong binders.
A mean of the replicates is given; it leaves out those without a signal.
"no signal" marks a missing value. The strain was present, yet no cells mated with the target were sequenced in any replicate, which points to weak or no binding.
Order: sorted from the lowest average up, undetected variants last.
Empty control strains, which show no peptide, gave a signal in 18% of pairings with library AAYL50; the median was 4.19 and 95% of these signals were weaker than 2.99. No background was subtracted. Also given: how often the same scFv was detected with the empty control strains.
Parent in this assay: reference entry 0.65, copy in this library 1.68.

{"changes": "Q27T+S28K+W56D", "mean, log10 nM": "-0.23", "replicates with signal": "3/3", "empty controls": "9/9"}
{"changes": "S26N+K36A+W56K", "mean, log10 nM": "0.22", "replicates with signal": "3/3", "empty controls": "2/9"}
{"changes": "S26C+S33D+V39I", "mean, log10 nM": "0.50", "replicates with signal": "3/3", "empty controls": "1/9"}
{"changes": "T59E+H98G", "mean, log10 nM": "0.79", "replicates with signal": "3/3", "empty controls": "4/9"}
{"changes": "K24R+W56A+T59H", "mean, log10 nM": "0.99", "replicates with signal": "3/3", "empty controls": "2/9"}
{"changes": "S28F+S33D+S38A", "mean, log10 nM": "1.02", "replicates with signal": "3/3", "empty controls": "2/9"}
{"changes": "E32N+S103V", "mean, log10 nM": "1.15", "replicates with signal": "3/3", "empty controls": "1/9"}
{"changes": "L30A+N37A", "mean, log10 nM": "1.30", "replicates with signal": "3/3", "empty controls": "1/9"}
{"changes": "S26D+S62K+Q96S", "mean, log10 nM": "1.52", "replicates with signal": "3/3", "empty controls": "2/9"}
{"changes": "K36H+N37Y+S58E", "mean, log10 nM": "1.72", "replicates with signal": "3/3", "empty controls": "1/9"}
{"changes": "L30E+S38D+S62E", "mean, log10 nM": "1.84", "replicates with signal": "3/3", "empty controls": "4/9"}
{"changes": "K36N+S38F+T59E", "mean, log10 nM": "3.58", "replicates with signal": "3/3", "empty controls": "4/9"}
{"changes": "Q27P+T59D+Y97V", "mean, log10 nM": "3.93", "replicates with signal": "1/3", "empty controls": "1/9"}
{"changes": "V29S+E32L+Y97R", "mean, log10 nM": "4.27", "replicates with signal": "1/3", "empty controls": "0/9"}
{"changes": "R34H+N35Y+R60G", "mean, log10 nM": "4.59", "replicates with signal": "1/3", "empty controls": "0/9"}
{"changes": "A40K+Q95H+L100F", "mean, log10 nM": "4.90", "replicates with signal": "1/3", "empty controls": "5/9"}
{"changes": "R34K+N37L+Y97G", "mean, log10 nM": "5.22", "replicates with signal": "3/3", "empty controls": "8/9"}
{"changes": "S26I+S33C+K36S", "mean, log10 nM": "5.61", "replicates with signal": "1/3", "empty controls": "1/9"}
{"changes": "A57P+S58M+E61C", "mean, log10 nM": "no signal", "replicates with signal": "0/3", "empty controls": "0/9"}
{"changes": "R34Q+S62H+S103A", "mean, log10 nM": "no signal", "replicates with signal": "0/3", "empty controls": "0/9"}
{"changes": "V39H+W56D+L102H", "mean, log10 nM": "no signal", "replicates with signal": "0/3", "empty controls": "0/9"}
{"changes": "V29E+V39L+P101F", "mean, log10 nM": "no signal", "replicates with signal": "0/3", "empty controls": "0/9"}

Top 2 of the variants detected in all replicates, tightest first:

{"changes": "Q27T+S28K+W56D", "mean, log10 nM": "-0.23", "replicates with signal": "3/3", "empty controls": "9/9"}
{"changes": "S26N+K36A+W56K", "mean, log10 nM": "0.22", "replicates with signal": "3/3", "empty controls": "2/9"}